Reference: patent publication US9085549B2, “Compounds for the treatment of neurodegenerative diseases” (ProteoTech Inc., priority 2011, dated 2015)

What was measured:
α-synuclein fibrils [1] = target: T1, α-synuclein fibrils (Homo sapiens (Human), UniProt P37840); test: Thioflavin T fluorometry: disruption/disaggregation of pre-formed α-synuclein fibrils; type: biochemical; details: 48 h, read-out: Max % Decrease
Protocol: The biological activity of the compounds provided herein as disruptors/inhibitors of Parkinson's disease α-synuclein fibrils was assessed by determining the efficacy of the compounds to cause a disassembly/disruption of pre-formed Parkinson's disease α-synuclein fibrils. In one study, Thioflavin T fluorometry was used to determine the effects of the compounds, and […]).
In one study, Thioflavin T fluorometry was used to determine the effects of the compounds on α-synuclein fibrils. In addition to test compounds, this experiment included a positive control compound and a negative control compound for reference.
For each compound, the % inhibition of Thioflavin T fluorescence (i.e. the decrease compared to control reactions containing α-synuclein alone) was plotted against the log of the concentration of the test compound (expressed as mole ratio relative to α-synuclein).

α-synuclein = α-synuclein (Homo sapiens (Human), UniProt P37840); test: Circular dichroism spectroscopy: inhibition of α-synuclein β-sheet formation; type: biochemical; details: 24 h, read-out: Max % Inhibition
Protocol: For this purpose, α-synuclein was obtained from rPeptide as a lyophilized salt in 1 mg aliquots. Buffer components and other solvents were obtained from Sigma as A.C.S. Reagent grade or higher. […] After 24 hours, reactions were diluted 20-fold in PBS and CD spectra for each reaction were acquired on a Jasco J-810 spectropolarimeter using a 0.1 cm path length cell. All spectra were recorded with a step size of 0.1 nm, a bandwidth of 1 nm, and an α-synuclein concentration of 0.05 mg/ml. The spectra were trimmed at the shortest wavelength that still provided a dynode voltage less than 600V. The trimmed spectra were then subjected to a data processing routine beginning with noise reduction by Fourier transform followed by subtraction of a blank spectrum (vehicle only without α-synuclein). These blank corrected spectra were then zeroed at 260 nm and the units converted from millidegrees to specific ellipticity.
These percent β-sheet values were then used to provide the respective relative % inhibition of β-sheet induced by the compounds at given molar ratio of test compound:α-synuclein.

α-synuclein fibrils [2] = target: T1, α-synuclein fibrils; test: biochemical; details: 48 h, read-out: Max % Decrease

SMILES: Oc1ccc(-c2cc(Br)c(-c3ccc(O)c(O)c3)s2)cc1O [SA-59]
- Emax (α-synuclein fibrils [1]): 96%
- Emax (α-synuclein): 99%
- Emax (α-synuclein fibrils [2]): 85%
